In ChEMBL document CHEMBL1134447 (J Med Chem, 2001):

Assays:
[1] = Partition coefficient (logD7.4); conditions: octanol/water, pH 7.4
[2] = Solubility (phosphate buffered saline); conditions: buffer

With `O=[N+]([O-])c1cc2c(cc1CN1CCC(n3c(O)nc4ccccc43)CC1)OCO2` the logD [1] was 2.4 and the S [2] was less than 10 µM.

Work on `Cc1ccc2[nH]c(=O)n(C3CCN(Cc4cc5c(cc4Cl)OCO5)CC3)c2c1` yielded a logD [1] of 2.6 and an S [2] of less than 10 µM.

Only a part of the results on these compounds is given; other tests are left out.
